Measured values published in paper PMC3725402, “Evolution of the key alkaloid enzyme putrescine N-methyltransferase from spermidine synthase” (Frontiers in Plant Science, 2013).

How the values were obtained:
[1] = test system: C[S+](CC[C@H](N)C(=O)O)C[C@H]1O[C@@H](n2cnc3c(N)ncnc32)[C@H](O)[C@@H]1O; assay: purified protein; conditions: PMT activity, co-substrate putrescine, 20 mM HEPES pH 8.0, 37°C, 2 mM DTT, 1 mM ascorbic acid
NCCCCN = assay: purified protein; conditions: PMT activity, co-substrate SAM, 20 mM HEPES pH 8.0, 37°C, 2 mM DTT, 1 mM ascorbic acid

DsPMT (putrescine N-methyltransferase) (Datura stramonium)
Km [1]: 13 ± 1.97 µM | kcat [1]: 1.98 s⁻¹ | kcat (NCCCCN): 1.98 s⁻¹

DsPMT (putrescine N-methyltransferase) (Datura stramonium; H108L)
Km [1]: 99 ± 11.68 µM | kcat [1]: 0.78 s⁻¹ | kcat (NCCCCN): 0.78 s⁻¹
